# Values quoted from earlier work as cited in patent publication US7355042B2, “Treatment of CNS disorders using CNS target modulators” (Hypnion, Inc., priority 2001, dated 2008).
# Protein sequences, listed by entry. Tags and fused reporters are not part of them.
# UniProt P10980, whole entry: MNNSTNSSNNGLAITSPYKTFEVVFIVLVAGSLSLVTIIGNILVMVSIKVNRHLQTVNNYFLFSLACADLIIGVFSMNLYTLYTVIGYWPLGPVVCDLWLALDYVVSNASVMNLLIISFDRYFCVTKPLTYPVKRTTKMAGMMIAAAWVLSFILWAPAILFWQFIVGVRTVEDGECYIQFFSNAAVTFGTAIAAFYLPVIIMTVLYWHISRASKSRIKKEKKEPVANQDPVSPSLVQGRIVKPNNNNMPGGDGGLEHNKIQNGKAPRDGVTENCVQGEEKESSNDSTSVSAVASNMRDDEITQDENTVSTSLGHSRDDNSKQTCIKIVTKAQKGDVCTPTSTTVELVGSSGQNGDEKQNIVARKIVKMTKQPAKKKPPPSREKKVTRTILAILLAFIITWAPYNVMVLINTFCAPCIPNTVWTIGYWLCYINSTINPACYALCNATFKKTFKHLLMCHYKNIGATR
# Target: T1, M2 receptor from rat cardiac membranes (Rattus norvegicus, UniProt P10980)
# T1 construct: the M2 receptor was from rat cardiac membranes; from tissue; host or cells: rat cardiac membranes
# Settings: read-out: Ki of reference compounds, M2 binding assay; cited from earlier work
structure (smiles),measurement,value
C[N+]1(C)CCC(OC(=O)C(c2ccccc2)c2ccccc2)CC1 [4-DAMP methiodide],pKi,8.52

# pKi: −log10 of the molar value.
